One may read the Km as the substrate concentration at which the rate is half of its maximum.

This note sets out measurements from patent US5849525A, “Compositions corresponding to a proton-coupled peptide transporter and methods of making and using same” (Brigham and Women's Hospital, Inc., priority 1995, dated 1998).

The assay concerns the target T1, proton-coupled peptide transporter (Oryctolagus cuniculus, UniProt P36836).
T1 construct: Xenopus laevis oocytes were injected with cRNA coding the proton-coupled peptide transporter; expressed in transfected cells; host or cells: Xenopus laevis oocytes injected with cRNA transcribed in vitro from the cloned cDNA
T1 sequence (P36836 1-707): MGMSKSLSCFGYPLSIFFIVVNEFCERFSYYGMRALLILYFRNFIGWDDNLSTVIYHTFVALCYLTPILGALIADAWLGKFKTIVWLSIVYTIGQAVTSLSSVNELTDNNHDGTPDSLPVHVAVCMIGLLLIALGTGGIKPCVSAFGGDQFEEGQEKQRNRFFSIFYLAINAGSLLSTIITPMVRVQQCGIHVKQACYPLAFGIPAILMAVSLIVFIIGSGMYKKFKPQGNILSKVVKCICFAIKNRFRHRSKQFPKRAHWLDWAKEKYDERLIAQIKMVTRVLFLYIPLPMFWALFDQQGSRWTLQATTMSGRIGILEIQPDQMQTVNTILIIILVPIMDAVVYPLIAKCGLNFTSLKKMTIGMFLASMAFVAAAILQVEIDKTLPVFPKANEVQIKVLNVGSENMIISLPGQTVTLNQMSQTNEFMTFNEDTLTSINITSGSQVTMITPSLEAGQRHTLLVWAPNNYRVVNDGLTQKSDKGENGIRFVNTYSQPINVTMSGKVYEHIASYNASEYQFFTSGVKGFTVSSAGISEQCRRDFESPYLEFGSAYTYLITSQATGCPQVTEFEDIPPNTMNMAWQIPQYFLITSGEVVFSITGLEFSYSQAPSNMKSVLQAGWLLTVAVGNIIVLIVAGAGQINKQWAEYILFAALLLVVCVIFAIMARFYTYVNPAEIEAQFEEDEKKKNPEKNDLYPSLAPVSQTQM
The assay can be described thus: Two-electrode voltage clamp of Xenopus laevis oocytes injected with transporter cRNA: substrate-evoked inward currents and Km. To be noted: current amplitudes at altered substrate concentrations, pH 5.5, cRNA-injected oocytes. In kind it is cell-based, rabbit. An excerpt:
These oocytes were subjected to two electrode voltages clamp analysis (Gene Clamp 500, Axon Instruments, California) in the manner described in Kanaisy & Hediger, M. A. Nature 360, 467-71 (1992).
FIG. 9 depicts electrophysiological measurements of transformed cocytes as a percent of glycyl-sarcosine evoked current. Data representing glycyl-sarcosine are depicted as a solid black bar. Data representing peptide are depicted with dotted bars. Data representing antibiotics are depicted with hatched bars.
By altering peptide concentrations, current amplitudes for different compositions, Km values were determined.
Background: Two-electrode voltage clamp is typically applied to oocytes expressing channels or transporters.

Take Diglycine (GG) [dipeptide substrate]: the Km was 2500 µM.
